# Test results: ChEMBL document CHEMBL1126740, “(S)- and (R)-8-(di-n-propylamino)-6,7,8,9-tetrahydro-3H-benz[e]indole-1-carbaldehyde: a new class of orally active 5-HT1A-receptor agonists” (J Med Chem, 1993)
# Sequences of proteins named here, by UniProt entry; tags and fusion partners are left off.
# UniProt P61169, whole entry: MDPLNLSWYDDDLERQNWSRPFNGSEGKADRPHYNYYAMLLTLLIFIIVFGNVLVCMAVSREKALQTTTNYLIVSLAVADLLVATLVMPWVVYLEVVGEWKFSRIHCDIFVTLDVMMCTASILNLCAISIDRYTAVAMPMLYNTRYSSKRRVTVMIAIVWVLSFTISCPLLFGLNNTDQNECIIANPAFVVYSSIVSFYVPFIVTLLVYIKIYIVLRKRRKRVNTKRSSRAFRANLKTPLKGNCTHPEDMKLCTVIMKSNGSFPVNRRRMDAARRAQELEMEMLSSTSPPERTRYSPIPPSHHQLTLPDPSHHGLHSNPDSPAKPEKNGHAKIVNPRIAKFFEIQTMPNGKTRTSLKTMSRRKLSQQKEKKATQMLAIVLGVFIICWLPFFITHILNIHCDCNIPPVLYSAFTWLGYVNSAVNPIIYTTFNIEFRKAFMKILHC
# Target: D(2) dopamine receptor (Rattus norvegicus, UniProt P61169)
# Test: Displacement of [3H]spiperone from dopamine receptor D2
row,SMILES,Ki [nM]
1,CN(C)[C@@H]1CCc2ccc3[nH]ccc3c2C1,170
2,CN(C)C1CCc2ccc3[nH]ccc3c2C1 (racemic),300
